Target: T1, human βG (hβG) (Homo sapiens, UniProt P08236)
T1 construct: histidine tag (N); made in house; host or cells: E. coli BL21 (DE3)
T1 sequence (P08236 23-651): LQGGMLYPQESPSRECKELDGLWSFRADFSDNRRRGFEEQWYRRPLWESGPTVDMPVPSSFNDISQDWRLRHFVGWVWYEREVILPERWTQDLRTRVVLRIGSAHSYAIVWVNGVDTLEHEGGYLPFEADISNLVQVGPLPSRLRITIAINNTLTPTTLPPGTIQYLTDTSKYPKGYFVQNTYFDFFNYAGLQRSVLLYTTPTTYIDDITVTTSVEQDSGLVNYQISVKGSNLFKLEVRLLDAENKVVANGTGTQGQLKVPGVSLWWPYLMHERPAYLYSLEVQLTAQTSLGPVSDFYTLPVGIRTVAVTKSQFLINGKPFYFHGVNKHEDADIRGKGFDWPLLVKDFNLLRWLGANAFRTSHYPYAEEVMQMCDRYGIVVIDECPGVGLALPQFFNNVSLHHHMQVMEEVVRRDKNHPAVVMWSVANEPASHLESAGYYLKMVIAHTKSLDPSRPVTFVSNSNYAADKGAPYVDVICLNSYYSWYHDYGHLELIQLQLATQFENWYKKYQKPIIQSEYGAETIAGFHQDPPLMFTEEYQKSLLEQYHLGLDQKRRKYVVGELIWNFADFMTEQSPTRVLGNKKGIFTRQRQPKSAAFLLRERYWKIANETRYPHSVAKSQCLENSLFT
Test: In vitro βG-activity assay (pNPG hydrolysis), hβG
Format: biochemical
Settings: 10 μM compound, Figure 2
Description: Plasmid pRESTB containing βG gene and a histidine tag at the N-terminus was constructed as described. Recombinant βG (human and E. coli) was produced by isopropyl β-D-thiogalactopyranoside (IPTG) induction of BL21 (DE3) bacteria. βG was purified from bacterial supernatants by affinity chromatography on nickels Sepharose 6 Fast Flow (GE Healthcare). The column was washed by phosphate-buffered saline (PBS), with 50 mM imidazole, and βG was eluted by PBS with 250 mM imidazole. The purified βG was desalted on a Sephadex G-25 column equilibrated with PBS and stored at −80°C.
The candidate compounds were purchased from SPECS (The Netherlands). Each candidate was provided as a solid power and dissolved in 100% DMSO (Sigma-Aldrich) to 10 mM as stock. […] Each reaction consisted of 3.75 ng purified βG, 50 μM compound, and 5 mM pNPG in PBS containing 10% DMSO and 0.05% BSA (Sigma-Aldrich). βG-activities were measured by color development of pNP detected on a microplate reader at OD 405 nm.
(Table S1) The candidate compounds were purchased from SPECS (Zoetermeer, The Netherlands). […] Each reaction consisted of 3.75 ng purified βG, 50 µM compound, and 5 mM pNPG in PBS containing 10% DMSO and 0.05% BSA (Sigma-Aldrich). βG-activities were measured by color development of pNP detected on a microplate reader at OD 405 nm. […]

O=C(O)[C@@H](O)[C@H]1OC(=O)[C@H](O)[C@H]1O [D-saccharic acid 1,4-lactone, reference compound]
inhibition of hβG versus eβG: higher inhibition on hβG

Source: article PMC4370192, “Discovery of Specific Inhibitors for Intestinal E. coli β-Glucuronidase through In Silico Virtual Screening” (The Scientific World Journal, 2015)
